# Values quoted from earlier work in PubChem BioAssay AID1811 (Shanghai Institute of Organic Chemistry, 2009).
# This is one part of the list. The source made the active and inactive calls. Where no limit is named, active and inactive come without a cut-off here.
# Test system: trypsin i
# Assay: PubChem AID 1811
# Conditions: PDB complex binding affinities from literature
smiles,measurement,value
NCc1ccccc1,outcome,active
